Measured values taken from ChEMBL document CHEMBL1129509, “Hypoxia-selective antitumor agents. 12. Nitrobenzyl quaternary salts as bioreductive prodrugs of the alkylating agent mechlorethamine” (1996).

Tests used:
FME = test: Hypersensitivity factor is the ratio of IC50 for AA8/IC50 for FME cell line; details: Homo sapiens
EMT6 [1] = test: Ratio of aerobic C10 to that of hypoxic C10 for EMT cells; details: Mus musculus
UV4 = test: Hypersensitivity factor is the ratio of IC50 for AA8/IC50 for UV4 cell line; details: Cricetulus griseus
EMT6 [2] = test: Concentration to reduce EMT cell survival under hypoxic conditions (3h drug exposure) by clonogenic assay; details: Mus musculus
EMT6 [3] = test: Hypersensitivity factor is the ratio of IC50 for AA8/IC50 for EMT6 cell line; details: Mus musculus

SMILES	Hypersensitivity factor (FME)	Ratio (EMT6 [1])	Hypersensitivity factor (UV4)	C10 (EMT6 [2])	Hypersensitivity factor (EMT6 [3])
Cc1ccc(C[N+](C)(CCCl)CCCl)c([N+](=O)[O-])c1	54	240	470	0.29 mM·h	120
C[N+](CCCl)(CCCl)Cc1ccc([N+](=O)[O-])cc1	22		2900		121
Cc1cccc(C[N+](C)(CCCl)CCCl)c1[N+](=O)[O-]	330	1	730	0.2 mM·h	400
C[N+](CCCl)(CCCl)Cc1ccccc1[N+](=O)[O-]	24	2500	300	20 mM·h	40
C[N+](CCCl)(CCCl)Cc1cccc([N+](=O)[O-])c1	72		95		16
